Values quoted from earlier work in publication PMC6347521 (Current protocols in toxicology, 2018).

Tested on: rat
Conditions: ref not given; cited from earlier work

## CC(=O)Nc1ccc(O)cc1 [Acetaminophen]
  LD50 mg/kg (rat oral): 1944 mg/kg
